Broadly, the Kd is a measure of binding affinity in units of concentration.

Protein sequences, listed by entry. Tags and fused reporters are not part of them. Residues count along the entry.
UniProt O60674, 849-1124 Y1007F/Y1008F: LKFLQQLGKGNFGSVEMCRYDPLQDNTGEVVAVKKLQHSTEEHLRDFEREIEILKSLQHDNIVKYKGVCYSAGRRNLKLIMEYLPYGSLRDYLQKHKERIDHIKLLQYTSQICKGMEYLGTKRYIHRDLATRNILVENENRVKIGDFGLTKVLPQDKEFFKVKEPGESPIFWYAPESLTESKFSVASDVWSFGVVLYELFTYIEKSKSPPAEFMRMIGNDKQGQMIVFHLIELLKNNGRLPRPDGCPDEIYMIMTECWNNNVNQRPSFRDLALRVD

Structures are written as SMILES.

This assay concerns the target JAK2 (JH1domain-catalytic, Y1007F,Y1008F) kinase (Homo sapiens (Human), UniProt O60674, Y1007F/Y1008F). The settings on record: read-out: JAK2 Kd; JAK2 JH1 domain-catalytic, Y1007F,Y1008F; qPCR readout. (In qPCR the cycle at which signal appears reflects the starting amount.)

For the compound `CC(=O)Nc1cc(Oc2cnc3nc(Nc4nn([C@@H]5CCOC5)c(C(C)(C)C)c4F)n(C)c3c2)ccn1` [Example I-138, (R)—N-(4-((2-((5-(tert-butyl)-4-fluoro-1-(tetrahydrofuran-3-yl)-1H-pyrazol-3-yl)amino)-1-methyl-1H-imidazo[4,5-b]pyridin-6-yl)oxy)pyridin-2-yl)acetamide], the Kd is less than 10 nM.
For `CC(=O)Nc1cc(Oc2cnc3nc(Nc4cc(C(C)(C)C)n([C@@H]5CCOC56CC6)n4)n(C)c3c2)ccn1` (single isomer, unassigned) [Example I-189-a] the value was less than 10 nM.
The result for `Cn1c(Nc2cc(C(C)(C)C)n([C@H]3CCN(CCF)C3)n2)nc2ncc(Oc3ccnc(NC(=O)C4CC4)c3)cc21` [Example I-179, (S)—N-(4-((2-((5-(tert-butyl)-1-(1-(2-fluoroethyl)pyrrolidin-3-yl)-1H-pyrazol-3-yl)amino)-1-methyl-1H-imidazo[4,5-b]pyridin-6-yl)oxy)pyridin-2-yl)cyclopropanecarboxamide] reads less than 10 nM; that for `COc1c(Oc2ccnc(NC(C)=O)c2)cnc2nc(Nc3cc(C(C)(C)C#N)n([C@H]4CCOC4)n3)n(C)c12` [Example I-168, (S)—N-(4-((2-((5-(2-cyanopropan-2-yl)-1-(tetrahydrofuran-3-yl)-1H-pyrazol-3-yl)amino)-7-methoxy-1-methyl-1H-imidazo[4,5-b]pyridin-6-yl)oxy)pyridin-2-yl)acetamide], less than 10 nM.
The result for `COc1c(Oc2ccnc(NC(=O)C3CC3)c2)cnc2nc(Nc3cc(C(C)(C)C)n([C@H]4CCOC4)n3)n(C)c12` [Example I-171, (S)—N-(4-((2-((5-(tert-butyl)-1-(tetrahydrofuran-3-yl)-1H-pyrazol-3-yl)amino)-7-methoxy-1-methyl-1H-imidazo[4,5-b]pyridin-6-yl)oxy)pyridin-2-yl)cyclopropanecarboxamide] reads less than 10 nM; that for `CC(=O)Nc1cc(Oc2cnc3nc(Nc4cc5n(n4)CCCC5(C)C)n(C)c3c2Cl)ccn1` [Example I-208, N-(4-((7-chloro-2-((4,4-dimethyl-4,5,6,7-tetrahydropyrazolo[1,5-a]pyridin-2-yl)amino)-1-methyl-1H-imidazo[4,5-b]pyridin-6-yl)oxy)pyridin-2-yl)acetamide], less than 10 nM; that for `CC(=O)Nc1cc(Oc2cnc3nc(Nc4cc(C(C)(C)C)n([C@H]5CCOC5)n4)n(C)c3c2C)ccn1` [Example I-111, (S)—N-(4-((2-((5-(tert-butyl)-1-(tetrahydrofuran-3-yl)-1H-pyrazol-3-yl)amino)-1,7-dimethyl-1H-imidazo[4,5-b]pyridin-6-yl)oxy)pyridin-2-yl)acetamide], less than 10 nM.
For the compound `CCN1CCN(Cc2ccc(Nc3nc4ccc(Oc5ccnc(NC(=O)C6CC6)c5)cc4n3C)cc2C(F)(F)F)CC1` [Example I-14, N-(4-((2-((4-((4-ethylpiperazin-1-yl)methyl)-3-(trifluoromethyl)phenyl)amino)-1-methyl-1H-benzo[d]imidazol-6-yl)oxy)pyridin-2-yl)cyclopropanecarboxamide], the equilibrium dissociation constant (Kd) is less than 10 nM.
`CC(=O)Nc1cc(Oc2ccc3nc(Nc4ccc(Cc5cncn5C)c(C(F)(F)F)c4)n(C)c3c2)ccn1` [Example I-9]: the Kd lay in the range of 1000 to 5000 nM.
`CC(=O)Nc1cc(Oc2ccc3nc(Oc4cc(C5CC5)cn(C)c4=O)n(C)c3c2C#N)ccn1` [Example I-94, N-(4-((7-cyano-2-((5-cyclopropyl-1-methyl-2-oxo-1,2-dihydropyridin-3-yl)oxy)-1-methyl-1H-benzo[d]imidazol-6-yl)oxy)pyridin-2-yl)acetamide]: the Kd was less than 10 nM.
The result for `Cn1c(Nc2cn(C3CCC3)c([C@H]3CCOC3)n2)nc2ncc(Oc3ccnc(NC(=O)C4CC4)c3)cc21` (single isomer, unassigned) [Example I-198-a] reads less than 10 nM.
Regarding `COc1c(Oc2ccnc(NC(C)=O)c2)cnc2nc(Nc3cc(C(C)(C)C)n([C@H]4CCOC4)n3)n(C)c12` [Example I-156, (S)—N-(4-((2-((5-(tert-butyl)-1-(tetrahydrofuran-3-yl)-1H-pyrazol-3-yl)amino)-7-methoxy-1-methyl-1H-imidazo[4,5-b]pyridin-6-yl)oxy)pyridin-2-yl)acetamide], the Kd is less than 10 nM.
The result for `CO[C@H]1CC[C@H]1Cn1cc(C2CC2)cc(Nc2nc3ccc(Oc4ccnc(NC(C)=O)c4)cc3n2C)c1=O` (single isomer, unassigned) [Example I-76-b] reads 10 to 50 nM; that for `CC(=O)Nc1cc(Oc2ccc3nc(Nc4cc(C5CC5)cn(C5CCOCC5)c4=O)n(C)c3c2)ccn1` [Example I-69, N-(4-((2-((5-cyclopropyl-2-oxo-1-(tetrahydro-2H-pyran-4-yl)-1,2-dihydropyridin-3-yl)amino)-1-methyl-1H-benzo[d]imidazol-6-yl)oxy)pyridin-2-yl)acetamide], less than 10 nM.
For `COc1c(Oc2ccnc(NC(C)=O)c2)cnc2nc(Nc3cc(C(C)(C)C)n([C@@H]4CCOC4)n3)n(C)c12` [Example I-155, (R)—N-(4-((2-((5-(tert-butyl)-1-(tetrahydrofuran-3-yl)-1H-pyrazol-3-yl)amino)-7-methoxy-1-methyl-1H-imidazo[4,5-b]pyridin-6-yl)oxy)pyridin-2-yl)acetamide] the value was less than 10 nM; for `CC(=O)Nc1cc(Oc2ccc3nc(Nc4cc(C(C)(C)C)n([C@H]5CCOC5)n4)n(C)c3c2)ccn1` [Example I-20, (S)—N-(4-((2-((5-(tert-butyl)-1-(tetrahydrofuran-3-yl)-1H-pyrazol-3-yl)amino)-1-methyl-1H-benzo[d]imidazol-6-yl)oxy)pyridin-2-yl)acetamide], less than 10 nM.
In the case of `CC(=O)Nc1cc(Oc2ccc3nc(Nc4cc(C5CC5)nn(C)c4=O)n(C)c3c2)ccn1` [Example I-84, N-(4-((2-((6-cyclopropyl-2-methyl-3-oxo-2,3-dihydropyridazin-4-yl)amino)-1-methyl-1H-benzo[d]imidazol-6-yl)oxy)pyridin-2-yl)acetamide], the Kd was less than 10 nM.
On to `COc1c(Oc2ccnc(NC(C)=O)c2)cnc2nc(Nc3cc(C(C)(C)C#N)n([C@@H]4CCOC4)n3)n(C)c12` [Example I-167, (R)—N-(4-((2-((5-(2-cyanopropan-2-yl)-1-(tetrahydrofuran-3-yl)-1H-pyrazol-3-yl)amino)-7-methoxy-1-methyl-1H-imidazo[4,5-b]pyridin-6-yl)oxy)pyridin-2-yl)acetamide], for which the dissociation constant (Kd) is less than 10 nM.
For `CC(=O)Nc1cc(Oc2ccc3nc(Nc4cc(C(F)(F)F)n(C[C@@H]5CCCOC5)n4)n(C)c3c2)ccn1` (mixture of isomers) [Example I-36-b, (S)—N-(4-((1-methyl-2-((1-((tetrahydro-2H-pyran-3-yl)methyl)-5-(trifluoromethyl)-1H-pyrazol-3-yl)amino)-1H-benzo[d]imidazol-6-yl)oxy)pyridin-2-yl)acetamide and (R)—N-(4-((1-methyl-2-((1-((tetrahydro-2H-pyran-3-yl)methyl)-5-(trifluoromethyl)-1H-pyrazol-3-yl)amino)-1H-benzo[d]imidazol-6-yl)oxy)pyridin-2-yl)acetamide] the value was 50 to 1000 nM.
With `COc1c(Oc2ccnc(NC(=O)C3CC3)c2)cnc2nc(Nc3cc(C(C)(C)C)n([C@H]4CCN(CCF)C4)n3)n(C)c12` [Example I-183, (S)—N-(4-((2-((5-(tert-butyl)-1-(1-(2-fluoroethyl)pyrrolidin-3-yl)-1H-pyrazol-3-yl)amino)-7-methoxy-1-methyl-1H-imidazo[4,5-b]pyridin-6-yl)oxy)pyridin-2-yl)cyclopropanecarboxamide], the Kd was less than 10 nM.
For `CC(=O)Nc1cc(Oc2cnc3nc(Nc4cc(C(C)(C)C)n(C[C@H]5CCN(CCF)C5)n4)n(C)c3c2C)ccn1` [Example I-125, (S)—N-(4-((2-((5-(tert-butyl)-1-((1-(2-fluoroethyl)pyrrolidin-3-yl)methyl)-1H-pyrazol-3-yl)amino)-1,7-dimethyl-1H-imidazo[4,5-b]pyridin-6-yl)oxy)pyridin-2-yl)acetamide] the value was less than 10 nM.
Regarding `CO[C@H]1C[C@@H](n2cc(Nc3nc4ccc(Oc5ccnc(NC(C)=O)c5)cc4n3C)cc(C(F)(F)F)c2=O)C1` [Example I-56, N-(4-((2-((1-((1s,3s)-3-methoxycyclobutyl)-6-oxo-5-(trifluoromethyl)-1,6-dihydropyridin-3-yl)amino)-1-methyl-1H-benzo[d]imidazol-6-yl)oxy)pyridin-2-yl)acetamide], the dissociation constant (Kd) was 1000 to 5000 nM.
The result for `COCCN1CC[C@H](n2nc(Nc3nc4ncc(Oc5ccnc(NC(=O)C6CC6)c5)c(Cl)c4n3C)cc2C(C)(C)C)C1` [Example I-181, (S)—N-(4-((2-((5-(tert-butyl)-1-(1-(2-methoxyethyl)pyrrolidin-3-yl)-1H-pyrazol-3-yl)amino)-7-chloro-1-methyl-1H-imidazo[4,5-b]pyridin-6-yl)oxy)pyridin-2-yl)cyclopropanecarboxamide] reads less than 10 nM; that for `CC(=O)Nc1cc(Oc2cnc3nc(Nc4cc(C(F)(F)F)cn(C)c4=O)n(C)c3c2Cl)ccn1` [Example I-210, N-(4-((7-chloro-1-methyl-2-((1-methyl-2-oxo-5-(trifluoromethyl)-1,2-dihydropyridin-3-yl)amino)-1H-imidazo[4,5-b]pyridin-6-yl)oxy)pyridin-2-yl)acetamide], less than 10 nM; that for `CC(=O)Nc1cc(Oc2ccc3nc(Nc4ccc(F)cc4F)n(C)c3c2C)ccn1` [Example I-6, N-(4-((2-((2,4-difluorophenyl)amino)-1,7-dimethyl-1H-benzo[d]imidazol-6-yl)oxy)pyridin-2-yl)acetamide], less than 10 nM.
With `CC(=O)Nc1cc(Oc2cnc3nc(Nc4cc(C(F)(F)C(F)(F)F)n([C@H]5CCOC5)n4)n(C)c3c2Cl)ccn1` [Example I-146, (S)—N-(4-((7-chloro-1-methyl-2-((5-(perfluoroethyl)-1-(tetrahydrofuran-3-yl)-1H-pyrazol-3-yl)amino)-1H-imidazo[4,5-b]pyridin-6-yl)oxy)pyridin-2-yl)acetamide], the dissociation constant (Kd) was less than 10 nM.

The record behind these values is patent publication US11691963B2, “6-heteroaryloxy benzimidazoles and azabenzimidazoles as JAK2 inhibitors” (Ajax Therapeutics, Inc., priority 2020, dated 2023).
